Consider one molecule from ChEMBL document CHEMBL6134834, “Aromatic nitroolefin with inhibition efficacy in triple-negative breast cancer cells by dual targeting RXRα and tubulins” (Eur J Med Chem, 2025).

For one series, the system named is MCF-10A. The series can be described thus: Cytotoxicity against human MCF-10A cells assessed as inhibition of cell growth at 1.25 to 5 uM incubated for 24 hrs by MTT assay. The format is toxicity, cell-based. The settings on record: dose 1.25-5 µM.
A short description of series [1]: Cytotoxicity against mouse MLE-12 cells assessed as inhibition of cell growth at 1.25 to 5 uM incubated for 24 hrs by MTT assay. In kind it is toxicity, cell-based. The settings on record: mle-12, 24 h, dose 1.25-5 µM.

For `COc1cc(/C=C/[N+](=O)[O-])c2ccccc2c1`, the Activity entry (in the series on MCF-10A; in series [1]) was “Non-toxic” throughout.
